The experiment has as its target T1, TEM1 on SJSA-1 and A673 cells (UniProt Q9HCU0 18-757, limits assumed).
T1 sequence (looked up): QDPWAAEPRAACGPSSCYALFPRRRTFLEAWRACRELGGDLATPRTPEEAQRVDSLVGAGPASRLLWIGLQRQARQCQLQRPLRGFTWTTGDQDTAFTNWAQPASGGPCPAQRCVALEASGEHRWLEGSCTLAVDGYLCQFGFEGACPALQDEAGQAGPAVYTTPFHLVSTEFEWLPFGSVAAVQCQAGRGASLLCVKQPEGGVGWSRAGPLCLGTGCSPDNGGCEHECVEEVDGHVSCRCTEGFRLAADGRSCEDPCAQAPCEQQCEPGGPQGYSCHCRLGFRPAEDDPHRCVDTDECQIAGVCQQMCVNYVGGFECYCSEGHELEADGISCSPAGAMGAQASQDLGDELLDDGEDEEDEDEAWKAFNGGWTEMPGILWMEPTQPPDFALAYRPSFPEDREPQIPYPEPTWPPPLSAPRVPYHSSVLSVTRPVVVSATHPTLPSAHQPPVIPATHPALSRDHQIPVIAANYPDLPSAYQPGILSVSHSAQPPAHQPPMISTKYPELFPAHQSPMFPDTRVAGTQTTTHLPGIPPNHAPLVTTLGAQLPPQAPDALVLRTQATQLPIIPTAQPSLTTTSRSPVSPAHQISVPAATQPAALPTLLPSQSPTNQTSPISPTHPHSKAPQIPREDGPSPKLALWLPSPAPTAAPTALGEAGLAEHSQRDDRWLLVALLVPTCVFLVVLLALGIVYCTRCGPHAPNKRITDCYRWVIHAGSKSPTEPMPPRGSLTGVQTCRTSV
As to the kind of experiment: cell-based or functional assay.

B1: antiTEM1-MC-VC-PABC-MMAE (antibody)
heavy: QVQLQESAPGLVKPSETLSLTCTVSGGSIRSYYWSWIRQPPGKGLEYIGYIYYTGSAIYNPSLQSRVTISVDTSKNQFSLKLNSVTAADTAVYYCAREGVRGASGYYYYGMDVWGQGTTVTVSSASTKGPSVFPLAPSSKSTSGGTAALGCLVKDYFPEPVTVSWNSGALTSGVHTFPAVLQSSGLYSLSSVVTVPSSSLGTQTYICNVNHKPSNTKVDKKV[here human IgG1 Fc without letters]
light: not shown
modifications: MC-VC-PABC-MMAE by thiol conjugation; DAR not given
Consider B1, for which the “IC50, cell proliferation assay, A673-DMEM-RPMI cells” value turned out to be 0.9 µg/mL; the “IC50, cell proliferation assay, A673-RPMI cells” value came to 1 µg/mL; the “IC50, cell proliferation assay, SJSA-1 cells” value was found to be 4 µg/mL.
